Measured values reported in patent US11820766B2, “Monoacylglycerol lipase modulators” (Janssen Pharmaceutica NV, priority 2018, dated 2023).

Amino acid sequences for entries named in this document (tags omitted).
UniProt Q99685, whole entry: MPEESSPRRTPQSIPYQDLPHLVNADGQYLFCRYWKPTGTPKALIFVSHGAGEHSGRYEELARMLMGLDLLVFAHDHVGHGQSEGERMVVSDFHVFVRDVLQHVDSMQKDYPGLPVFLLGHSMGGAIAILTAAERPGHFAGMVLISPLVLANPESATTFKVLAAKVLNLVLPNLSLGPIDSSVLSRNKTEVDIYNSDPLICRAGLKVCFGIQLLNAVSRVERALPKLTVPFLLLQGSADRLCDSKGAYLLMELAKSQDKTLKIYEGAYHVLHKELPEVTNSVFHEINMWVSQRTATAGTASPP

Molecular target: human MGL from HeLa cells (Homo sapiens, UniProt Q99685)
Test: In vitro MGL activity assay: [glycerol-1,3-3H]-oleyl glycerol cleavage by MGL from HeLa cells
Conditions: read-out: MGL IC50, 300 nM [Glycerol-1,3-3H]-oleyl glycerol, one hour
Description: The assay used to measure the in vitro activity of MGL is adapted from the assay used for another serine hydrolase (FAAH) described in Wilson et al., 2003 (A high-throughput-compatible assay for determining the activity of fatty acid amide hydrolase. Wilson S J, Lovenberg T W, Barbier A J. Anal Biochem. 2003 Jul. 15; 318(2):270-5.). The assay consists of combining endogenously expressed MGL from HeLa cells with test compounds, adding [glycerol-1,3-^3H]-oleyl glycerol, incubating for one hour, and then measuring the amount of cleaved [1,3-^3H]-glycerol that passes through an activated carbon filter. The amount of cleaved, tritiated glycerol passing through the carbon filter is proportional to the activity of the MGL enzyme in a particular well/test condition.
Standard conditions for this assay combine 300 nM [Glycerol-1,3-^3H]-oleyl glycerol with human MGL from HeLa cells and test compounds for one hour, after which the reaction is filtered through activated carbon and tritium is measured in the flow through. The test compound concentration in screening mode is 10 uM, while the highest compound concentration in IC50 assays is determined empirically. MGL is the predominant hydrolase in HeLa cells/cell homogenates.

COc1ccc2nc(C)c(C(=O)N3CCc4c(nn(C)c4-c4cc(F)c(F)c(F)c4)[C@@H]3C)n2c1
IC50: 204 nM
